## scFv variants of Ab-95 (light chain) against a SARS-CoV-2 spike peptide

Source: Engelhart et al. 2022 (doi:10.1038/s41597-022-01779-4), MIT Lincoln Laboratory and A-Alpha Bio; data file from the FLAb repository.

The target is the same throughout: PDVDLGDISGINAS, from the HR2 region of SARS-CoV-2 spike.

Each scFv is VH, the linker GGGGSGGGGSGGGGS, VL, as in the parent Ab-95, and differs from it in the CDRs of the light chain only.
VH: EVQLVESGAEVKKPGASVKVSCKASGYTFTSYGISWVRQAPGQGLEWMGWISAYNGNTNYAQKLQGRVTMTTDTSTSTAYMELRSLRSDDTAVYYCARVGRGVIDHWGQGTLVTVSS
VL: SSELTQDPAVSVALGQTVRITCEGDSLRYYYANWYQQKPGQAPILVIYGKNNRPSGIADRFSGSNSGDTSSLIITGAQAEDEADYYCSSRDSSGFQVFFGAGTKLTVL

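The parent was found by panning a naive human phage display library on the peptide. The library (AAYL52) carries one to three amino acid substitutions per variant, with no insertions or deletions. AlphaSeq pools MATa yeast showing the antibodies with MATalpha yeast showing the peptide. Mating (16 h, 30 °C) was followed by selection of diploids and sequencing of their barcodes. Read counts were normalised to the haploid input and turned into Kd by a linear fit to BCL2-family pairs of known affinity, for each replicate. Mating was done three times.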

Substitutions are numbered in sequence along the VL above, starting at 1 (not Kabat). Numbers give log10(Kd / nM), so 0 is 1 nM and 3 is 1 µM. Smaller is tighter. Replicates are averaged; those with no signal do not enter the mean. Where no diploid with the target was found in that replicate, the entry reads "ND": below detection, most likely a poor binder, though not proof of it. Background: pairings of library AAYL52 with three empty control strains gave a value in 28% of cases (median 3.91, 5th percentile 2.90). Values in that range, when seen in few replicates, are hard to tell from nonspecific mating. Also given: how often the same scFv was detected with the empty control strains, with their mean in brackets.

| # | changes | log10 Kd, replicates | mean log10 Kd (nM) | control signals |
|---|---|---|---|---|
| 1 | R28H/D91Q/F95R | 4.64 ND ND | 4.64 | 1/9 (3.69) |
| 2 | N51K/S89D/Q96H | 4.22 4.62 3.61 | 4.15 | 3/9 (3.89) |
| 3 | Y30H/S89G/F98Q | 2.59 2.00 1.99 | 2.19 | 0/9 |
| 4 | N51H/D91R/V97E | 4.19 ND ND | 4.19 | 3/9 (4.03) |
| 5 | N33E/G49M/R90F | ND ND ND | ND | 2/9 (4.88) |
| 6 | A32D/G49C/P54H | 4.52 5.27 ND | 4.89 | 3/9 (3.89) |
| 7 | Y29V/G49W/F95D | ND ND ND | ND | 1/9 (3.65) |
| 8 | D25S/R53L/R90L | 3.08 3.48 ND | 3.28 | 4/9 (4.24) |
| 9 | L27C/N52C/G94Q | ND ND ND | ND | 3/9 (3.42) |
| 10 | S88M/S89L/F95Y | 2.55 2.02 1.73 | 2.10 | 4/9 (3.58) |
| 11 | E23M/G24A/S88Y | ND 3.03 3.81 | 3.42 | 1/9 (5.17) |
| 12 | Y31S/Q96T/F98D | ND ND 2.32 | 2.32 | 0/9 |
| 13 | L27S/D91F/F98G | ND ND ND | ND | 0/9 |
| 14 | Y29M/N51M/F95E | 2.76 ND ND | 2.76 | 4/9 (3.69) |
| 15 | E23L/G49Y/R53H | 4.17 ND 4.56 | 4.36 | 2/9 (3.76) |
| 16 | Y30W/N51S/V97F | 3.93 ND 3.12 | 3.53 | 4/9 (4.08) |
| 17 | G24N/N33E/S93Y | 5.34 ND 4.13 | 4.73 | 2/9 (3.40) |
| 18 | G24I/N51I/R53D | ND ND ND | ND | 1/9 (2.85) |
| 19 | Y30G/F98L | 0.96 0.89 0.57 | 0.80 | 1/9 (3.46) |
| 20 | N33L/S89V/V97D | ND ND 3.55 | 3.55 | 4/9 (3.36) |
| 21 | N33R/N51T/S93W | 5.63 4.99 3.35 | 4.66 | 2/9 (3.84) |
| 22 | D25H/S26T/R53H | 4.10 3.48 4.19 | 3.92 | 4/9 (4.23) |
| 23 | D25V/R28I/Y30N | 1.25 0.89 0.71 | 0.95 | 2/9 (3.34) |
| 24 | D25M/Y31K/S92Y | 3.11 2.28 1.88 | 2.42 | 1/9 (3.11) |
| 25 | Y29K/Y31N/N51K | 3.11 3.76 2.92 | 3.26 | 3/9 (4.58) |
| 26 | G49F/G94M/Q96A | ND ND ND | ND | 3/9 (3.34) |
| 27 | S26M/R53I | ND 3.72 ND | 3.72 | 1/9 (3.88) |
| 28 | E23Q/S26K/P54I | ND ND ND | ND | 2/9 (3.30) |
| 29 | N33M/P54E/D91Y | ND ND 2.80 | 2.80 | 1/9 (3.54) |
| 30 | S26D/L27Y/N33G | 5.00 4.32 ND | 4.66 | 7/9 (3.73) |
| 31 | D25G/N52Y/S88W | ND 4.05 3.38 | 3.72 | 3/9 (4.28) |
| 32 | G24V/S55L/G94I | 3.43 3.30 ND | 3.36 | 5/9 (3.54) |
| 33 | Y30C/D91E/V97L | 3.06 3.11 3.68 | 3.28 | 4/9 (4.11) |

For reference, the parent read 2.31 as the reference entry and 2.25 as a member of this library.